Target: actin from rabbit skeletal muscle (rabbit) (UniProt P68135)

Substance: heterodimeric capping protein (mouse α1- and β2-subunits) (from UniProt P47753 1-286; P47757-2 1-272) (complex)
- lag phase of pyrene-actin polymerization of the full system (3 µM actin, 0.3 µM VCA, 0.3 µM Arp2/3 complex, 13.5 µM profilin) in the presence of 20 nM CP: 1.5 min
